{"source": "patent US20160237164A1", "about": "(VIVENTIA BIO, published 2016)", "binders": {"B1": {"name": "VB5-845-DI (de-immunized VB5-845 Fab fragment) (Fab, V domains shown)", "VH": "EVQLVESGGGLVQPGGSLRLSCAASGYTFTAYGMNWVRQAPGKGLEWMGWINTYTGESTYADSVKGRFTISADTSKNTAYLQMNSLRAEDTAVYYCARFAIKGDYWGQGTLVTVSS", "VL": "DIQMTQSPSSLSASVGDRVTITCRSTKSLLHSNGITYLYWYQQKPGKAPKLLIYQMSNLASGVPSRFSSSGSGTDFTLTISSLQPEDFATYYCAQNLEIPRTFGTGTKVEIKR"}}, "key": {"[1]": {"target": "T1, Epithelial Cell Adhesion Molecule (EpCAM) (human, UniProt P16422 24-314)", "T1 construct": "whole, on cells; also called 17-1A; KSA", "T1 sequence (looked up)": "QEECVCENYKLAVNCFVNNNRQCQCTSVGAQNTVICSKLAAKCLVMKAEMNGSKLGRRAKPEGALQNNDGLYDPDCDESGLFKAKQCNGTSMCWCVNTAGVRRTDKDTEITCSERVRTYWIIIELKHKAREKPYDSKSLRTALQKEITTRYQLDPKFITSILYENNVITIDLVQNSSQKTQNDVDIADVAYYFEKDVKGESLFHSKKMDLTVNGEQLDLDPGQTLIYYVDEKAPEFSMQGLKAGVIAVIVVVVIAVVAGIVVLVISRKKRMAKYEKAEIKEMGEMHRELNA", "assay": "flow cytometry on Cal-27 cells, fold-increase in median fluorescence over PBS control"}, "[2]": {"target": "T2, Epithelial Cell Adhesion Molecule (EpCAM) (human, UniProt P16422 24-314)", "T2 chain": "T1 sequence (looked up)", "assay": "flow"}}, "data": [{"binder": "B1", "values": [{"measurement": "binding result", "setting": "[1]", "value": "binds"}, {"measurement": "Kd", "setting": "[2]", "value": 1.35, "unit": "nM"}]}]}
